The source of these data is patent publication US8163894B2, “DNA for eukaryotic expression of CymR” (National Research Council of Canada, priority 2001, dated 2012).

This data set is described as follows: Water solubility of effectors. The class given is physicochemical. The text has this: The need to solubilize p-cumate (p-cumic acid) in organic solvent (e.g. ethanol or dimethyl formamide) is a great disadvantage. The present invention thus provides water-soluble effectors as well as possibly expanding the spectrum of inducers beyond p-cumate. At first, cumic alcohol, 4-methyl benzylalcohol, ethyltoluene, indole-2-carboxylic acid, indole-3-carboxylic acid, benzoic acid, 3- and 4-hydroxybenzoic acids, 3,4-dihyroxybenzoic acid and 2,4-dihydrobenzoic acid were tried. […] In this P2-cymlacZ fusion system, the threshold cumate concentration for induction is in the order of 0.002 millimolar (mM).
Di-methyl p-aminobenzoic acid (DM PABA) and its sodium salt, DM PABA Na^+, Na^+ cumate, Na^+ trimethyl cumate, Na^+ benzoate, Na+toluate, and Na+ethylbenzoate were tested as possible inducers at various concentrations. […] The sodium salt of cumic acid was also tested vs cumic acid (taken as cumate).

Structures are written as SMILES.

Regarding `CN(C)c1ccc(C(=O)O)cc1` [DM PABA, Di-methyl p-aminobenzoic acid], the water solubility result is “water-soluble”.
